{"sequences": {"note": "Protein sequences, listed by entry. Tags and fused reporters are not part of them. Lines headed by an entry give the natural chain unless they say otherwise; changes in a name come on top.", "UniProt P35372, whole entry": "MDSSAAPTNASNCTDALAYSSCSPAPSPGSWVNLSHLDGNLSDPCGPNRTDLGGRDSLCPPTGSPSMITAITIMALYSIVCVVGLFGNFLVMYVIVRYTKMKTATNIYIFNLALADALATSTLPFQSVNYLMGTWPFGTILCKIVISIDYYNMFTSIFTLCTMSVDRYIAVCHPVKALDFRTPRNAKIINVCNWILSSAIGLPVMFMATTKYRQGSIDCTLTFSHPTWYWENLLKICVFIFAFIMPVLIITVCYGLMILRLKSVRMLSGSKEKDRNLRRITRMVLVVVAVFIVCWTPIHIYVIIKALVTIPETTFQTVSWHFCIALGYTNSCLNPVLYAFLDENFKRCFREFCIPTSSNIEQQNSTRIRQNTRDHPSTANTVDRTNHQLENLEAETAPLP", "UniProt P41143, whole entry": "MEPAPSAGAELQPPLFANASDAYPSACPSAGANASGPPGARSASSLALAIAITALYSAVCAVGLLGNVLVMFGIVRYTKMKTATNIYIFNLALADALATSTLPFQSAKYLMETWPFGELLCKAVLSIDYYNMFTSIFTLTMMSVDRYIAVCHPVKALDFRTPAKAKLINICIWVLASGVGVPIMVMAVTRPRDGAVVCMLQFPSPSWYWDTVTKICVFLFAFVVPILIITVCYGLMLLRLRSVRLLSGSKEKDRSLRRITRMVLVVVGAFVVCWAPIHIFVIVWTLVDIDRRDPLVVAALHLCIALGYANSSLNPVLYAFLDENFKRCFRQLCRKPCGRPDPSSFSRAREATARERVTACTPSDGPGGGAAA", "UniProt P41145": "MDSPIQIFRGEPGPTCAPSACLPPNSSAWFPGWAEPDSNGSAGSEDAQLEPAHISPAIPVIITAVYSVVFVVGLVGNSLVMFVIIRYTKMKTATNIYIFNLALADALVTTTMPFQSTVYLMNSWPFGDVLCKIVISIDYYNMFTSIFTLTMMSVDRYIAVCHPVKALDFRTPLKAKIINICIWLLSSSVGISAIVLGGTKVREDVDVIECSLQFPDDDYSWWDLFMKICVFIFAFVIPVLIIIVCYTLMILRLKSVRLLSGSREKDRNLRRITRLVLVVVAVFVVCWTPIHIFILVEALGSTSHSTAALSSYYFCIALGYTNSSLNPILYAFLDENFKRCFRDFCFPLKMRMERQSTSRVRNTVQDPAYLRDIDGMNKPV"}, "source": "ChEMBL document CHEMBL1155455", "details_in_all_cases": "CHO", "key": {"[1]": {"biological_target": "Mu-type opioid receptor (Homo sapiens) (UniProt P35372)"}, "[2]": {"biological_target": "Delta-type opioid receptor (Homo sapiens) (UniProt P41143)"}, "[3]": {"biological_target": "Kappa-type opioid receptor (Homo sapiens) (UniProt P41145)"}}, "data": [{"molecule": "CC(C)[C@@H](CN1CC[C@@](C)(c2cccc(O)c2)[C@@H](C)C1)NC(=O)[C@@H]1CCc2cc(O)ccc2C1", "values": [{"measurement": "Ke", "setting": "[1]", "result": 6.67, "unit": "nM"}, {"measurement": "Ke", "setting": "[2]", "result": 44.8, "unit": "nM"}, {"measurement": "Ke", "setting": "[3]", "result": 0.18, "unit": "nM"}]}, {"molecule": "CC(C)[C@@H](CN1CC[C@@](C)(c2cccc(O)c2)[C@@H](C)C1)NC(=O)[C@H]1Cc2ccc(O)cc2CO1", "values": [{"measurement": "Ke", "setting": "[1]", "result": 7.4, "unit": "nM"}, {"measurement": "Ke", "setting": "[2]", "result": 197, "unit": "nM"}, {"measurement": "Ke", "setting": "[3]", "result": 0.71, "unit": "nM"}]}, {"molecule": "CC(C)[C@@H](CN1CC[C@@](C)(c2cccc(O)c2)[C@@H](C)C1)NC(=O)[C@@H]1Cc2ccc(O)cc2CO1", "values": [{"measurement": "Ke", "setting": "[1]", "result": 5.2, "unit": "nM"}, {"measurement": "Ke", "setting": "[2]", "result": 134, "unit": "nM"}, {"measurement": "Ke", "setting": "[3]", "result": 5.7, "unit": "nM"}]}, {"molecule": "CC(C)[C@@H](CN1CC[C@@](C)(c2cccc(O)c2)[C@@H](C)C1)NC(=O)[C@H]1Cc2ccc(O)cc2CS1", "values": [{"measurement": "Ke", "setting": "[1]", "result": 5.57, "unit": "nM"}, {"measurement": "Ke", "setting": "[2]", "result": 395, "unit": "nM"}, {"measurement": "Ke", "setting": "[3]", "result": 0.99, "unit": "nM"}]}, {"molecule": "CC(C)[C@@H](CN1CC[C@@](C)(c2cccc(O)c2)[C@@H](C)C1)NC(=O)[C@@H]1Cc2ccc(O)cc2CS1", "values": [{"measurement": "Ke", "setting": "[1]", "result": 13.4, "unit": "nM"}, {"measurement": "Ke", "setting": "[2]", "result": 182, "unit": "nM"}, {"measurement": "Ke", "setting": "[3]", "result": 1.58, "unit": "nM"}]}, {"molecule": "CC(C)[C@@H](CN1CC[C@@](C)(c2cccc(O)c2)[C@@H](C)C1)NC(=O)[C@H]1CCc2cc(O)ccc2C1", "values": [{"measurement": "Ke", "setting": "[1]", "result": 11.2, "unit": "nM"}, {"measurement": "Ke", "setting": "[2]", "result": 205, "unit": "nM"}, {"measurement": "Ke", "setting": "[3]", "result": 1.37, "unit": "nM"}]}, {"molecule": "CC(C)[C@@H](CN1CC[C@@](C)(c2cccc(O)c2)[C@@H](C)C1)NC(=O)[C@H]1Cc2ccc(O)cc2C[S+]1[O-]", "note": "(single isomer, unassigned; diastereomer b)", "values": [{"measurement": "Ke", "setting": "[1]", "result": 1.8, "unit": "nM"}, {"measurement": "Ke", "setting": "[2]", "result": 61, "unit": "nM"}, {"measurement": "Ke", "setting": "[3]", "result": 0.55, "unit": "nM"}]}, {"molecule": "CC(C)[C@@H](CN1CC[C@@](C)(c2cccc(O)c2)[C@@H](C)C1)NC(=O)[C@H]1Cc2ccc(O)cc2C[S+]1[O-]", "note": "(single isomer, unassigned; diastereomer a)", "values": [{"measurement": "Ke", "setting": "[1]", "result": 7.9, "unit": "nM"}, {"measurement": "Ke", "setting": "[2]", "result": 208, "unit": "nM"}, {"measurement": "Ke", "setting": "[3]", "result": 2.7, "unit": "nM"}]}]}
